SMILES strings stand for the structures. The list shows a part of the results, in another mix than the full data. The source made the active and inactive calls. Calls follow the shape of the dose curve; as a rule, active = well fitted activation curve with a large enough effect; inconclusive = small, poorly fitted or top-dose-only effect; inactive = flat fitted curve, though single readings scatter; cell line not stated here. Entries that show only a call come without a potency.

This assay is described as follows: A Quantitative High throughput Screen to Identify Chemical Modulators of PINK1 Expression. Also: nearly all actives have a fitted effect of over 65% in size. The conditions noted are these: PINK1 immunofluorescence, high-content cytometry, 24 h; series mostly up to 76.6 µM.
Take `CC(=O)Nc1ccc([As](=O)(O)O)cc1`: the Potency entry was “inactive”.
For the compound `O=C(O)c1ccccc1[As](=O)(O)O`, the Potency entry is “inactive”.
Consider `CCCC1OP(N)(=O)OCC1CC` (stereo not given), for which the Potency result was “inactive”.
For `Nc1cccc2ccc([As](=O)(O)O)cc12`, the Potency result is “inactive”.
Take `CCCCCCCCCCCCCCCC1C[N+](C)(C)CCOP(C)(=O)O1` (stereo not given): the Potency entry was “inactive”.
For the compound `CP(=O)(Nc1ccc(Cl)cc1Cl)Oc1ccccc1` (stereo not given), the Potency entry was “inactive”.
For `CP(=O)(OCCOc1ccccc1)OCCOc1ccccc1`, the Potency entry is “inactive”.
For `CCN(N=Nc1nonc1N)c1nonc1N`, the Potency entry is “inactive”.
In the case of `CN1CCCC(OC(=O)C(c2ccccc2)c2ccccc2)C1` (stereo not given), the Potency result was “inactive”.
On to `Clc1ccc(Cl)c(NC2=NCC(CBr)S2)c1` (stereo not given), for which the Potency result is “inactive”.
As for `CN(C)CCOC(=O)C(O)(c1ccccc1)C1CCCC1` (stereo not given), the entry is “inactive”.
As for `COc1ccccc1OP(=O)(Nc1ccc(C)cn1)Oc1ccccc1OC`, the entry is “inactive”.
As for `Cc1ccc(OP(=O)(Nc2nccs2)Oc2ccc(C)cc2)cc1`, the Potency result is “inactive”.
For the compound `CN(C(=O)Cc1ccc(Cl)c(Cl)c1)[C@H]1CCCC[C@H]1N1CCCC1`, the Potency entry was “inactive”.
Regarding `COc1ccccc1OP(C)(=O)Nc1ccc(Br)cc1` (stereo not given), the Potency result was “inactive”.
As for `Cc1ccc(N/C(=N/P(=O)(N2CCOCC2)N2CCOCC2)N2CCOCC2)cc1`, the Potency result is “inactive”.
With `NC(=O)c1cc([N+](=O)[O-])cc([N+](=O)[O-])c1N`, the Potency result is “inactive”.
For `O=[N+]([O-])c1cc2c(cc1[N+](=O)[O-])OCO2` the value was “inactive”; for `CCc1ccc(OP(C)(=O)O)cc1`, “inactive”; for `O=[N+]([O-])C1C(O)C(O)C([N+](=O)[O-])C(O)C1O` (stereo not given), “inactive”.
For `CP(=O)(Nc1ccccn1)Oc1ccccc1` (stereo not given) the value was “inactive”.
`COc1ccccc1OP(C)(=O)Nc1ccc(C)cc1C` (stereo not given): the Potency result is “inactive”.
For `Oc1ccccc1CNc1ccccn1` the value was “inactive”.
For the compound `O=C(NC(Sc1ccncn1)C(Cl)(Cl)Cl)c1ccccc1` (stereo not given), the Potency result was “inactive”.
For the compound `Cc1c(NP(C)(=O)Oc2ccc(C(C)C)cc2)c(=O)n(-c2ccccc2)n1C` (stereo not given), the Potency entry is “inactive”.
On to `Nc1cc(N)c2nonc2c1[N+](=O)[O-]`, for which the Potency result is “inactive”.
As for `CC(C)CC(=O)NC(Sc1ccc(Cl)cc1)C(Cl)(Cl)Cl` (stereo not given), the entry is “inactive”; as for `O=[N+]([O-])c1cc([N+](=O)[O-])c(Nc2ccccn2)c([N+](=O)[O-])c1`, “inactive”; as for `CP(=O)(Oc1ccccc1)N1CCOC1=O` (stereo not given), “inactive”.
`Cc1ccc(NP(=O)(Oc2ccccc2)Oc2ccccc2)nc1`: the Potency result is “inactive”.
Consider `CCc1ccc(OP(C)(=O)Nc2cccnc2)cc1` (stereo not given), for which the Potency result is “inactive”.
For `CCc1nc2c(n1)c1c(non1O)c1c2no[n+]1[O-]`, the Potency entry is “inactive”.
For the compound `O=[N+]([O-])c1cc([N+](=O)[O-])c(CCNc2ccccc2)c([N+](=O)[O-])c1`, the Potency result was “inactive”.
Turning to `O=[N+]([O-])c1cccc2n[nH]nc12`, the Potency entry is “inactive”.
As for `CC(=O)N1C2C3N(C(C)=O)C1C1N(C(C)=O)C(C(N1C(C)=O)N3C(C)=O)N2C(C)=O`, the Potency result is “inactive”.
As for `COc1ccccc1OP(C)(=O)Nc1c(C)n(C)n(-c2ccccc2)c1=O` (stereo not given), the entry is “inactive”; as for `O=C(OCCCN1CCCC1)C(O)(c1ccccc1)C1CCCCC1` (stereo not given), “inactive”; as for `CCN(CC)CC(O)COC(=O)C(O)(c1ccccc1)C1CCCCC1` (stereo not given), “inactive”.
For the compound `COc1ccc(OP(C)(=O)Nc2ccc(Br)cc2)cc1` (stereo not given), the Potency entry is “inactive”.
Regarding `COc1ccc(C2=NCC(CBr)S2)cc1` (stereo not given), the Potency entry is “inactive”.
As for `CC1CCN(C(=O)Oc2c(Cl)cc(Cl)c3cccnc23)CC1`, the entry is “inactive”.
Take `c1cc(-c2nn[nH]n2)ccc1-c1nn[nH]n1`: the Potency entry was “inactive”.
As for `CC(C)c1nc(Nc2ccccc2)n(P(=O)(N(C)C)N(C)C)n1`, the Potency result was “inactive”.
As for `CN(C)C(=O)c1c([N+](=O)[O-])cc([N+](=O)[O-])cc1[N+](=O)[O-]`, the entry is “inactive”.
As for `CC(C)=N/N=C(\N)N[N+](=O)[O-]`, the Potency result was “inactive”.
Consider `CN(C)C(=O)OCCc1n(C)cc[n+]1C`, for which the Potency result is “inactive”.
Consider `CCN(/C(=N/P(=O)(N1CCOCC1)N1CCOCC1)N1CCOCC1)c1ccc(OC)cc1`, for which the Potency entry is “inactive”.
As for `COc1ccccc1OP(C)(=O)Nc1ccccc1Br` (stereo not given), the Potency result was “inactive”.
Consider `CC(C)(C)c1ccc(OP(C)(=O)O)cc1`, for which the Potency result was “inactive”.
For the compound `Nc1ccc([As](=O)(O)c2ccc(N)cc2)cc1`, the Potency entry was “inactive”.
Consider `C[N+]1=C2C=CC=CC=C2SC12C([N+](=O)[O-])=CC([N+](=O)[O-])=C[C-]2[N+](=O)[O-]` (stereo not given), for which the Potency entry is “inactive”.
Turning to `CP(=O)(OC12CC3CC(CC(C3)C1)C2)OC12CC3CC(CC(C3)C1)C2`, the Potency result is “inactive”.
Regarding `CCOC(=O)c1ccc(NP(C)(=O)Oc2ccc(Cl)cc2)cc1` (stereo not given), the Potency entry was “inactive”.
On to `O=P(/N=c1/nc(-c2ccccc2)n(-c2ccccc2)s1)(Nc1ccccc1)Nc1ccccc1`, for which the Potency entry is “inactive”.
As for `O=C(Nc1cc([As](=O)(O)O)ccc1O)c1ccccc1`, the Potency result is “inactive”.
For the compound `O=P1(N(CCCl)CCCl)OCCCS1` (stereo not given), the Potency entry was “inactive”.
As for `Nc1ccc2c(ccc3cccnc32)n1.O=[N+]([O-])c1cc([N+](=O)[O-])c(O)c([N+](=O)[O-])c1`, the entry is “inactive”.
In the case of `O=C(O)CNc1ccc([As](=O)(O)O)cc1`, the Potency entry is “inactive”.
For `COC(=O)C1(C)COP(=O)(Nc2ccccc2)OC1` (stereo not given) the value was “inactive”; for `O=[N+]([O-])c1cccc(NC2=NCC(CBr)S2)c1` (stereo not given), “inactive”.
Regarding `O=[N+]([O-])c1ncn(CCn2ncnc2[N+](=O)[O-])n1`, the Potency result is “inactive”.
In the case of `CC(C)(C)C(=O)NC(Sc1ccncn1)C(Cl)(Cl)Cl` (stereo not given), the Potency result is “inactive”.
Turning to `COc1ccc(NP(C)(=O)Oc2ccccc2OC)cc1` (stereo not given), the Potency entry was “inactive”.
For `CN(C)CCOC(=O)C(O)(c1ccccc1)C1CCCCC1` (stereo not given), the Potency result is “inactive”.
Consider `O=P(Nc1nc2ccccc2s1)(c1ccccc1)c1ccccc1`, for which the Potency entry was “inactive”.
For the compound `C[C@H]1OP(=O)(Oc2ccccc2)[C@H](O)[C@H](O)[C@H]1N=[N+]=[N-]` (stereo not given in full), the Potency result was “inactive”.
As for `O=P(Nc1ccccn1)(c1ccc(Br)cc1)c1ccc(Br)cc1`, the Potency result was “inactive”.
For the compound `CN(C)C1(CNC(=O)c2ccc(Cl)c(S(N)(=O)=O)c2)CCCCC1`, the Potency entry is “inactive”.
As for `COc1ccc(OP(C)(=O)Nc2cccc(Br)c2)cc1` (stereo not given), the entry is “inactive”.
In the case of `COc1ccc(N)c([N+](=O)[O-])c1[N+](=O)[O-]`, the Potency result is “inactive”.
For `O=C(OC1CN2CCC1CC2)c1cccc(Cl)c1` (stereo not given) the value was “inactive”; for `Cc1c(C(c2ccc3c(c2)OCO3)c2c(C)n(C)n(-c3ccccc3)c2=O)c(=O)n(-c2ccccc2)n1C.O=[N+]([O-])c1cc([N+](=O)[O-])c(O)c([N+](=O)[O-])c1`, “inactive”.
With `C(Cc1nn[nH]n1)Cc1nn[nH]n1`, the Potency result is “inactive”.
Take `Nc1ccc([As](=O)(O)c2ccc([N+](=O)[O-])cc2)cc1`: the Potency result was “inactive”.
For `O=[As](O)(c1ccccc1)c1ccc(O)cc1`, the Potency result was “inactive”.
As for `Cc1cc(-c2cccc3ccccc23)c(C)cn1.O=[N+]([O-])c1cc([N+](=O)[O-])c(O)c([N+](=O)[O-])c1`, the Potency result was “inactive”.
As for `O=[N+]([O-])c1ncn(CCn2cnc([N+](=O)[O-])n2)n1`, the Potency entry was “inactive”.
For `CC(=O)NC(SC(=S)N(C)C)C(Cl)(Cl)Cl` (stereo not given) the value was “inactive”.
`O=[N+]([O-])c1ccc(OP2(=O)COCCO2)cc1` (stereo not given): the Potency entry is “inactive”.
In the case of `c1nnnn1CCn1cnnn1`, the Potency entry is “inactive”.
`CCOP(C)(=S)SCC(=O)NC(C)(CC)C(=O)O` (stereo not given): the Potency result is “inactive”.
As for `CC(C)C(=O)NC(Sc1ccccc1)C(Cl)(Cl)Cl` (stereo not given), the Potency entry is “inactive”.
Take `O=P(Nc1nccs1)(c1ccccc1)c1ccccc1`: the Potency result was “inactive”.
With `CP(=O)(Nc1ccc(SC(F)(F)F)cc1)Oc1ccc(F)cc1` (stereo not given), the Potency entry is “inactive”.
For `O=[N+]([O-])c1cc([N+](=O)[O-])c(C(F)(F)F)c([N+](=O)[O-])c1O`, the Potency entry is “inactive”.
`Cc1ccccc1NP(C)(=O)Nc1ccccc1C`: the Potency result was “inactive”.
As to `CCN(CCCl)Cc1ccccc1C`, the Potency entry is “inactive”.
On to `CP(=O)(Nc1ccc2c(c1)OCCO2)Oc1ccccc1` (stereo not given), for which the Potency result was “inactive”.
In the case of `CC(C)(C)C(=O)NC(Sc1ccccc1)C(Cl)(Cl)Cl` (stereo not given), the Potency entry was “inactive”.
Consider `CC(C)c1ccc(OP(C)(=O)Nc2ccc(SC(F)(F)F)cc2)cc1` (stereo not given), for which the Potency result was “inactive”.
As to `CCc1cc(O)c([N+](=O)[O-])c(C)c1[N+](=O)[O-]`, the Potency entry is “inactive”.
For `O=P1(Nc2nc3ccc(Cl)cc3s2)COc2ccccc2O1` (stereo not given), the Potency entry was “inactive”.
Consider `CCOc1ccc(C2=NCC(CBr)S2)cc1` (stereo not given), for which the Potency entry was “inactive”.
As to `CC(=O)Nc1ccc([As](=O)(O)O)c(O)c1`, the Potency result is “inactive”.
As for `CC(=O)Nc1ccc(Oc2c([N+](=O)[O-])cc([N+](=O)[O-])cc2[N+](=O)[O-])cc1`, the entry is “inactive”; as for `Cc1ccccc1CN(C)C(=O)COC(=O)C(O)(c1ccccc1)c1ccccc1`, “inactive”.
As for `O=C(OCCN1CCN(CCOCc2ccccc2)CC1)C(O)(c1ccccc1)c1ccccc1`, the entry is “inactive”; as for `C[C@H]1OP(=O)(Oc2ccccc2)C[C@@H]2O[C@@H]21` (stereo not given in full), “inactive”.
For the compound `C[C@@H]1C=CCP(=O)(Oc2ccccc2)O1` (stereo not given in full), the Potency entry is “inactive”.
On to `CC(=O)c1ccc(N2CC2c2ccncc2)cc1` (stereo not given), for which the Potency entry is “inactive”.
As for `COC(=O)C1(C)COP(=O)(NCc2ccccc2)OC1` (stereo not given), the entry is “inactive”.
For the compound `COc1ccc(OP(C)(=O)Nc2ccc(SC(F)(F)F)cc2)cc1` (stereo not given), the Potency result is “inactive”.
On to `O=P1(N(CCCl)CCCl)OCCC2CCCCN21` (stereo not given), for which the Potency result was “inactive”.
As to `CCOC(=O)c1ccc(NP(C)(=O)Oc2ccc(F)cc2)cc1` (stereo not given), the Potency entry was “inactive”.
Consider `c1ccc(-c2nn[nH]n2)c(-c2nn[nH]n2)c1`, for which the Potency entry is “inactive”.
For `Cc1ccc(NP(=O)(Oc2cccc(C)c2)Oc2cccc(C)c2)nc1`, the Potency entry was “inactive”.
`CCNC(=S)/N=C(\N)N[N+](=O)[O-]`: the Potency entry was “inactive”.
For the compound `O=C(NC1CCS(=O)(=O)C1)NP(=S)(Oc1ccccc1)Oc1ccccc1` (stereo not given), the Potency result is “inactive”.
For `CC(NC(=O)COC(=O)C(O)(c1ccccc1)c1ccccc1)c1ccccc1` (stereo not given), the Potency entry is “inactive”.
For `Cc1ccccc1OP(=O)(Nc1ccccn1)Oc1ccccc1C` the value was “inactive”; for `O=c1c2cc([N+](=O)[O-])ccc2[nH]c2c([N+](=O)[O-])cc([N+](=O)[O-])cc12`, “inactive”; for `CCCCCOc1ccc(NP(C)(=O)Oc2ccc(Cl)cc2Cl)cc1` (stereo not given), “inactive”.
For the compound `CN(C)C(=O)Oc1noc2ccccc12`, the Potency entry is “inactive”.
Take `O=C(OC1CN2CCC1CC2)c1ccccc1` (stereo not given): the Potency entry is “inactive”.
In the case of `CCN(CC)CCCOC(=O)C(O)(c1ccccc1)C1CCCCC1` (stereo not given), the Potency entry is “inactive”.
As for `CCC(=O)N1C2C3N(C(=O)CC)C1C1N(C(=O)CC)C(C(N1C(=O)CC)N3C(=O)CC)N2C(=O)CC`, the entry is “inactive”; as for `Cc1c([N+](=O)[O-])cc([N+](=O)[O-])c(Br)c1[N+](=O)[O-]`, “inactive”; as for `COC(=O)c1cc2c(s1)N=C(c1ccccc1)N(C)P2(=O)N1CCOCC1` (stereo not given), “inactive”.
On to `Cc1ccc(OP(=O)(Nc2ccccn2)Oc2ccc(C)cc2)cc1`, for which the Potency result was “inactive”.
Turning to `CC(=O)NC(SC(=S)N(CC(C)C)CC(C)C)C(Cl)(Cl)Cl` (stereo not given), the Potency entry was “inactive”.
